Reference: US4560545A, “Basic aluminum magnesium carbonate” (Anphar S.A., priority 1978, dated 1985)

Experiment: antacid activity in simulated gastric juice (modified Holbert technique, automatic titrator)
Format: physicochemical
Conditions: for Vol. of gastric juice added: added at 0.7 ml/min. until pH fell below 3; for pH of suspension after 1 min.: about 0.125 g powder in 20 ml, 37° C.
Procedure: Approximately 0.125 g of powder was added to 20 ml of simulated gastric juice (U.S.P.) and stirred vigorously at 37° C. The pH was registered at 1, 5 and 10 minutes and then the automatic burette was started and synthetic gastric juice was added at a rate of 0.7 ml/min. until the pH fell below 3. The time taken and the amount of gastric juice added to reach pH 3 was observed.

[1] = gastric juice SP, without pepsin

Q: For hydrotalcite, which “Vol. of gastric juice added” value (gastric juice DP, double quantity of pepsin) is on record?
A: Its value is 12.20 mL.

Q: What about the “pH of suspension after 1 min.” value (gastric juice DP, with double quantity of pepsin) of the same substance?
A: The value was 3.16.

Q: What about the “pH of suspension after 1 min.” value (gastric juice N, normal U.S.P. simulated gastric juice) of the same substance?
A: The value was 3.42.

Q: What about the “Vol. of gastric juice added” value (gastric juice N, normal U.S.P.) of the same substance?
A: Its value is 13.55 mL.

Q: And the “pH of suspension after 1 min.” value [1]?
A: The value was 3.52.

Q: What about the “Vol. of gastric juice added” value [1] of the same substance?
A: The value was 13.5 mL.

Q: And the velocity of neutralisation (pH after 1 minute in the optimal zone, pH 3-5)?
A: Its velocity of neutralisation is “high velocity of neutralisation”.
